AlphaSeq binding of Ab-91 heavy chain variants to a spike HR2 peptide

Reference: Engelhart et al. 2022, doi:10.1038/s41597-022-01779-4. File: FLAb, binding data.

Target peptide (SARS-CoV-2 spike, HR2 region): PDVDLGDISGINAS

Parent scFv Ab-91: VL joined to VH by the linker GGGGSGGGGSGGGGS. Changes lie in the heavy chain CDRs alone.
VL: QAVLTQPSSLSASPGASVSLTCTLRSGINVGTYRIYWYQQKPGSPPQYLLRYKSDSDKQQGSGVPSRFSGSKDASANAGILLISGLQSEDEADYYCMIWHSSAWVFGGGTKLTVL
VH: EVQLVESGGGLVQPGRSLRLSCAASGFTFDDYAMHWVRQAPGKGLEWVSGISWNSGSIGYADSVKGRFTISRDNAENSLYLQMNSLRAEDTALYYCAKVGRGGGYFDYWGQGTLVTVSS

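The parent was found by panning a naive human phage display library on the peptide. Variants in AAYL51 differ from the parent at up to three CDR positions; double and triple changes were sampled at random. Affinity was read by AlphaSeq, a pooled yeast mating assay with surface-displayed partners. The frequency of each diploid, read from paired DNA barcodes, reflects how well the two displayed proteins bind. The ratio of observed to expected reads was calibrated, replicate by replicate, on BCL2-family standards whose Kd was known from biolayer interferometry. Each pool was mated in three replicate cultures.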

Positions count from residue 1 of the parent VH; D30Y puts Y in place of D. Values are log10 of the apparent Kd in nM; lower means stronger binding. A mean of the replicates is given; it leaves out those without a signal. An entry "ND" has no value in the source: the pair was not observed among the diploids in that replicate. This suggests poor binding but is not conclusive. Background: pairings of library AAYL51 with three empty control strains gave a value in 21% of cases (median 4.54, 5th percentile 3.26). Values in that range, when seen in few replicates, are hard to tell from nonspecific mating. For each scFv, signals with the empty controls are counted beside the result, with their mean in brackets. Parent in this assay: reference entry 1.86, copy in this library 0.88.

| changes | log10 Kd, replicates | mean log10 Kd (nM) | empty controls |
|---|---|---|---|
| D30Y+D107G | 4.89 / ND / 4.26 | 4.57 | 7/9 (4.75) |
| D62L+R101V+F106D | 4.58 / 5.55 / 4.83 | 4.99 | 5/9 (4.98) |
| T28N+A33G+Y105C | 1.90 / 1.71 / 1.42 | 1.68 | 1/9 (4.49) |
| T28D+I51F+V64E | ND / ND / ND | ND | 0/9 |
| D31S+A61L+D62V | ND / ND / ND | ND | 6/9 (4.89) |
| D30E+H35G+S55E | ND / ND / ND | ND | 1/9 (3.28) |
| A33R+S52M+Y108L | ND / ND / ND | ND | 4/9 (4.03) |
| H35P+I51L+A61S | ND / 4.49 / ND | 4.49 | 2/9 (4.05) |
| G26R+D31V+G59Y | ND / ND / ND | ND | 0/9 |
| I51V+K65G+G104M | 5.30 / 5.46 / ND | 5.38 | 6/9 (4.87) |
| T28I+N54H | 2.96 / 2.43 / 2.53 | 2.64 | 4/9 (4.56) |
| G50T+I51W+Y108G | 4.65 / 4.13 / 5.22 | 4.66 | 7/9 (5.23) |
| A33W+S57A+I58N | 4.62 / 6.06 / ND | 5.34 | 1/9 (4.83) |
| A33D+G50Q+R101C | 3.74 / 4.67 / 5.94 | 4.79 | 8/9 (4.65) |
| N54H+G59A+F106M | ND / ND / ND | ND | 0/9 |
| D30Y+G100L+G104D | 1.35 / 1.67 / 0.86 | 1.30 | 2/9 (4.53) |
| Y32D+K65Y | ND / ND / ND | ND | 0/9 |
| D30W+G102V+F106A | 2.70 / 2.57 / 3.41 | 2.89 | 7/9 (4.66) |
| S57I+G59N+V64W | ND / ND / 3.95 | 3.95 | 2/9 (3.93) |
| K65Y+G102D+G103W | ND / 5.15 / ND | 5.15 | 0/9 |
| D31Q+N54D+Y60V | 0.57 / 0.65 / -0.12 | 0.37 | 4/9 (4.74) |
| D30I+A33S+W53Y | 0.67 / 0.73 / 0.08 | 0.49 | 5/9 (4.13) |
| H35Y+I58C+D107S | 4.08 / ND / 5.32 | 4.70 | 5/9 (4.86) |
| W53D+I58R+V99L | ND / ND / ND | ND | 1/9 (2.55) |
| F29D+G50H+G102V | ND / ND / ND | ND | 0/9 |
| F29V+G59F+D62V | 4.79 / ND / ND | 4.79 | 5/9 (4.69) |
| G50L+G59I+A61I | ND / 3.94 / ND | 3.94 | 1/9 (3.12) |
| A33F+H35F+Y105W | ND / ND / ND | ND | 1/9 (4.26) |
| D31V+H35L+K65L | ND / ND / ND | ND | 0/9 |
| Y32K+Y105K+Y108D | ND / 5.06 / ND | 5.06 | 0/9 |
| F29Y+D30E+G50I | 3.54 / ND / ND | 3.54 | 1/9 (4.04) |
| A33V+G102C+D107L | ND / 4.11 / ND | 4.11 | 4/9 (4.92) |
| S57W+R101E+Y105A | ND / 4.02 / ND | 4.02 | 0/9 |
| F27M+I58P+R101H | ND / 5.48 / 4.45 | 4.97 | 2/9 (5.39) |
| H35W+N54F+G103P | 3.28 / ND / ND | 3.28 | 2/9 (3.81) |
| D30V+R101Y+Y108G | ND / ND / ND | ND | 1/9 (3.18) |
| D30R+A33V+V64M | 4.22 / 3.98 / 4.30 | 4.16 | 3/9 (3.78) |

A selection of 3 entries from above:

changes,"log10 Kd, replicates",mean log10 Kd (nM),empty controls
S57I+G59N+V64W,ND / ND / 3.95,3.95,2/9 (3.93)
A33F+H35F+Y105W,ND / ND / ND,ND,1/9 (4.26)
F29Y+D30E+G50I,3.54 / ND / ND,3.54,1/9 (4.04)